Target: aggregated beta-amyloid peptide (Homo sapiens, UniProt P05067)
Conditions: peptide aggregated three days at 37° C., then incubated overnight with compound, FIG. 4

By UniProt entry, the sequences of proteins in these tests, tags left out. Residues count along the entry.
UniProt P05067, 672-711: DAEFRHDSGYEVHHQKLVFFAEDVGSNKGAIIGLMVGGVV

## CC(CN(C)C)CN1c2ccccc2CCc2ccccc21 (stereo not shown) [Trimipramine, trimipramine]
  disaggregation of preformed amyloid aggregates by PAGE: did not have a disaggregation function
